# Screens from PubChem BioAssay.
# UUG fidelity – alters start codon recognition fidelity in yeast; S. cerevisiae UUG-firefly luciferase reporter, luminescence/redox ratio; activity score, % at 18.7 µM; actives 0.13% (n = 350,000); AID 602363;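 active = replicate mean at a twofold rise or more, about +100% in these data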;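 also: firefly luciferase made from a UUG start codon reports start codon fidelity; reporter light over untreated wells divided by growth signal over untreated wells; some hits fall short of that in this replicate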
# SIRT5 inh – inhibitors of human sirtuin-5 desuccinylase; Q9NXA8; Purified SirT5, succinyl-peptide AMC, trypsin-coupled fluorescence; inhibition, % at 15 µM; hit rate 1.1% among 330,000; in the data active means inhibition above about 15%
# PDI turbidity – PDI (human) enzyme inhibition. PDI insulin aggregation turbidity, A650, 90 min. P07237. inhibition, % at 10 µM. hit rate 0.052% among 350,000;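 active means mean inhibition across replicates of 30% or more, whatever share of single replicates reach that level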
# FGF22 binding – binders of recombinant human FGF22 by thermal shift; SYPRO orange fluorescence; percent of sucrose octasulfate shift, DMSO zero; AID 651658; activity (Tm shift, normalised), % at 9.99 µM; Q9HCT0; hit rate 1.5% among 340,000;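 active means mean Tm shift, scaled 0 neutral to 100 positive control, at about 1.3% or above, every replicate too, limit read from the data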
# ERp5 block – inhibitors of human ERp5 | ERp5 insulin aggregation, absorbance 650 nm, 90 min | hit rate 0.05% among 350,000 | AID 651711 | inhibition, % at 9.99 µM;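 active means mean replicate inhibition above about 25%, with every replicate also reaching it, limit read from the data, passing the limit was not always enough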
# S100A4 inh HTS – S100A4-myosin IIA interaction inhibition | AID 652163 | inhibition, % at 10.7 µM | S100A4/TAMRA-MyoIIA peptide fluorescence polarization | hit rate 0.14% among 360,000 | P26447;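 active means mean inhibition of at least 70% across replicates, with every replicate also reaching that level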
#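 Material: S100A4 monomer (human). Medium: Calcium-containing HEPES buffer, pH 7.2. Probe or stimulus: labelled myosin peptide probe, 5 nM. Compound dosing: one concentration per compound. Timing: polarization read 5 min after assay mix addition, stable 5–60 min. Benchmarks: DMSO as neutral control, TFP as positive control.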
# Numbers without * were called inactive; . = no result given. Hits are enriched below; roughly 2.2% of the tested compounds scored in any of these assays.
SMILES,UUG fidelity,SIRT5 inh,PDI turbidity,FGF22 binding,ERp5 block,S100A4 inh HTS
Cc1ccc(S(=O)(=O)N2C[C@H](O)COC[C@H]3O[C@@H](CC(=O)N[C@H]4CCN(Cc5ccccc5)C4)CC[C@@H]32)cc1,9,-2,.,0,7,-71
O=C(C[C@@H]1C=C[C@@H](NS(=O)(=O)c2cccc(F)c2)[C@@H](CO)O1)NCc1ccc2c(c1)OCO2,-5,4,.,0,1,83*
O=C(C[C@H]1CC[C@@H](NS(=O)(=O)c2cccc(F)c2)[C@H](CO)O1)NCc1ccc2c(c1)OCO2,25,3,.,0,-2,8
O=C(C[C@H]1CC[C@H](NS(=O)(=O)c2cccc(F)c2)[C@@H](CO)O1)NCc1ccc2c(c1)OCO2,-7,5,.,0,0,105*
O=C(C[C@@H]1C=C[C@H](NS(=O)(=O)c2cccc(F)c2)[C@@H](CO)O1)NCc1ccc2c(c1)OCO2,-12,-1,.,0,-1,9
CCCNC(=O)[C@H]1[C@H](CO)[C@H]2Cn3c(ccc(-c4ccccc4F)c3=O)[C@@H]1N2CCC,0,.,.,.,.,.
O=C(Cn1cnc2c(NCc3ccccc3)ncnc21)NCc1ccc2c(c1)OCO2,-8,27*,0,0,-1,0
C[C@@H]1CN([C@H](C)CO)C(=O)c2cccc(NC(=O)CCCCCC(=O)Nc3ccccc3N)c2O[C@H]1CN(C)C(=O)Nc1ccc(F)cc1,.,5,.,0,21,7
C/C(=N/NC(=O)OC(C)(C)C)c1ccco1,.,-4,-18,44*,3,-1
CC(/C=C/c1ccco1)=N/NC(=O)OC(C)(C)C,.,0,5,0,0,-9
CCC(=O)N(C)C[C@@H]1Oc2cc(-c3ccncc3)ccc2S(=O)(=O)N([C@@H](C)CO)C[C@@H]1C,14,-1,.,0,-3,18
CC1CCN(c2ccccc2NC(=S)NC(=O)c2cccs2)CC1,.,.,-4,.,.,.
CS(=O)(=O)N1CCN(c2ccccc2NC(=S)NC(=O)c2cccs2)CC1,.,0,2,43*,2,0
CC1CCN(c2ccccc2NC(=S)NC(=O)c2ccco2)CC1,-11,.,7,.,.,.
CC1CCN(c2ccccc2NC(=S)NC(=O)C(C)(C)C)CC1,.,0,7,43*,2,-1
CC(=O)N1CC2(C1)[C@@H](c1ccc(-c3ccc(F)cc3)cc1)[C@@H](CO)N2C(C)=O,.,-5,.,0,-2,0
CCS(=O)(=O)N1CC2(C1)[C@@H](c1ccccc1)[C@@H](CO)N2C(=O)C1CCC1,.,-3,.,.,-1,-3
CC1(C)CC(NC(=O)COc2ccccc2Cl)CC(C)(C)N1,-28,-4,-5,44*,-5,-16
CC1(C)CC(NC(=O)COc2ccc(Br)cc2Cl)CC(C)(C)N1,-2,1,-3,0,-18,-1
O=C(NCC[C@H]1CC[C@H](NS(=O)(=O)c2ccc(F)cc2)[C@@H](CO)O1)Nc1ccc(Cl)cc1,22,1,.,0,-1,-5
N#Cc1cccn1-c1nccs1,.,0,4,43*,-2,1
COc1cccc(CNS(=O)(=O)c2cc(Br)ccc2Br)c1,25,-5,5,1,0,-3
COc1cccc(CN(CCC(C)C)S(=O)(=O)c2cc(Br)ccc2Br)c1,1,28*,0,0,5,8
COc1cc(CN(CC(C)C)S(=O)(=O)c2ccccc2Br)cc(OC)c1,-16,.,14,43*,-2,-3
C[C@@H]1CN([C@H](C)CO)C(=O)c2cccc(NC(=O)Nc3ccc(F)cc3)c2O[C@@H]1CN(C)Cc1ccc(C(=O)Nc2ccccc2N)cc1,.,4,.,.,1,-27
CCO/C=C1/C(=O)N(Cc2ccccc2)C(=O)c2ccccc21,.,26*,5,0,0,-1
CCO/C=C1\C(=O)N(c2ccccc2)C(=O)c2ccccc21,-8,.,4,.,.,.
COc1ccccc1NC(=O)Nc1ccc2c(c1)C(=O)N(C)C[C@@H](OC)[C@H](C)CN(C)[C@@H](C)CO2,.,4,.,0,-5,-7
COc1ccc(-c2ccc3c(c2)[C@@H]2[C@@H](CCN2C(=O)c2ccc4c(c2)OCO4)[C@@H](CO)N3C)cc1,-15,6,.,0,-2,-1
COc1cccc(-c2ccc3c(c2)[C@H]2[C@H](CCN2C(=O)c2ccc4c(c2)OCO4)[C@H](CO)N3C)c1,2,3,.,0,-2,98*
COc1ccc(-c2ccc3c(c2)[C@H]2[C@H](CCN2C(=O)c2ccccc2F)[C@H](CO)N3C)cc1,-14,.,.,0,.,.
COc1cccc(-c2ccc3c(c2)[C@H]2[C@H](CCN2C(=O)c2ccccc2F)[C@H](CO)N3C)c1,-17,20*,.,0,0,6
CCCNC(=O)N1CC[C@@H]2[C@@H](CO)N(C)c3ccc(-c4ccc(F)cc4)cc3[C@@H]21,7,-3,.,-1,-2,93*
O=C(NCC[C@@H]1CC[C@H](NS(=O)(=O)c2ccc(F)cc2)[C@H](CO)O1)c1ccccc1F,.,-7,.,.,-3,6
COc1ccc(NC(=O)CNC(=O)Cn2c(C)cc3ccccc3c2=O)c(OC)c1,.,0,-4,43*,-4,-3
O=C(NCCc1csc(-c2cccnc2)n1)c1ccccc1Br,-3,15*,-3,0,5,-22
COc1cc(/C=N/N2CCN(Cc3ccc(Cl)cc3)CC2)cc(Br)c1O,9,18*,-3,0,0,2
O=C(O)c1ccc(COc2ccc([N+](=O)[O-])cc2)o1,.,19*,2,0,0,-3
O=C(O)c1ccc(OCc2ccc(C(=O)O)o2)cc1,.,-2,12,0,0,0
CCc1ccc(NC(=O)CSc2nc3ccsc3c(=O)n2CCCCCC(=O)O)cc1,.,-3,2,43*,3,-1

# Entries above containing two or more sulfur atoms, in the order listed:
SMILES,UUG fidelity,SIRT5 inh,PDI turbidity,FGF22 binding,ERp5 block,S100A4 inh HTS
CC1CCN(c2ccccc2NC(=S)NC(=O)c2cccs2)CC1,.,.,-4,.,.,.
CS(=O)(=O)N1CCN(c2ccccc2NC(=S)NC(=O)c2cccs2)CC1,.,0,2,43*,2,0
CCc1ccc(NC(=O)CSc2nc3ccsc3c(=O)n2CCCCCC(=O)O)cc1,.,-3,2,43*,3,-1

# Additional compounds
SMILES,UUG fidelity,SIRT5 inh,PDI turbidity,FGF22 binding,ERp5 block,S100A4 inh HTS
CCOc1ccc(NC(=O)CSc2nc3ccsc3c(=O)n2CCCCC(=O)O)cc1,-2,.,2,0,2,-2
CCN(CC)C(=O)[C@H]1C[C@@H]2[C@H](C[C@@H](c3ccccc3)[C@H]1C)N(c1ccc(F)cc1)C(=O)N2CCCOc1ccccc1,.,.,.,43*,3,2
C[C@@H]1CN([C@@H](C)CO)C(=O)c2cc(-c3ccc(F)cc3)cnc2O[C@H]1CN(C)C(=O)Nc1ccc(F)cc1,-1,.,.,.,.,.
C[C@@H]1CN([C@@H](C)CO)C(=O)Cc2cc(NS(C)(=O)=O)ccc2O[C@H]1CN(C)Cc1ccc(Oc2ccccc2)cc1,7,1,.,0,4,20
CN(C)CCC(C(=O)c1ccccc1)c1ccccn1 (stereo not drawn),-4,.,-3,.,.,.
CC(C(=O)c1ccccc1)C(O)c1ccccn1 (stereo not drawn),-33,.,2,44*,7,5
CCCNC(=O)C[C@@H]1C[C@@H]2c3cc(NC(=O)Cc4ccncc4)ccc3O[C@@H]2[C@H](CO)O1,3,.,.,0,.,.

# As a short view, two of the compounds above.
SMILES,UUG fidelity,SIRT5 inh,PDI turbidity,FGF22 binding,ERp5 block,S100A4 inh HTS
CC(C(=O)c1ccccc1)C(O)c1ccccn1 (stereo not drawn),-33,.,2,44*,7,5
CCCNC(=O)C[C@@H]1C[C@@H]2c3cc(NC(=O)Cc4ccncc4)ccc3O[C@@H]2[C@H](CO)O1,3,.,.,0,.,.
